In patent US20010009912A1, “NEW DERIVATIVES OF PYRIDIL PIPERAZINE OR PYRIDAZINYL PIPERAZYL, PROCESS FOR PRODUCTION THEREOF AND MEDICAMENTS CONTAINING THESE COMPOUNDS” (priority 1995, published 2001):
pIC50: −log10 of the molar value.

Chains of the proteins cited; added tags and fusions are not shown. Residues count along the entry.
UniProt P05106, 27-788 limits assumed: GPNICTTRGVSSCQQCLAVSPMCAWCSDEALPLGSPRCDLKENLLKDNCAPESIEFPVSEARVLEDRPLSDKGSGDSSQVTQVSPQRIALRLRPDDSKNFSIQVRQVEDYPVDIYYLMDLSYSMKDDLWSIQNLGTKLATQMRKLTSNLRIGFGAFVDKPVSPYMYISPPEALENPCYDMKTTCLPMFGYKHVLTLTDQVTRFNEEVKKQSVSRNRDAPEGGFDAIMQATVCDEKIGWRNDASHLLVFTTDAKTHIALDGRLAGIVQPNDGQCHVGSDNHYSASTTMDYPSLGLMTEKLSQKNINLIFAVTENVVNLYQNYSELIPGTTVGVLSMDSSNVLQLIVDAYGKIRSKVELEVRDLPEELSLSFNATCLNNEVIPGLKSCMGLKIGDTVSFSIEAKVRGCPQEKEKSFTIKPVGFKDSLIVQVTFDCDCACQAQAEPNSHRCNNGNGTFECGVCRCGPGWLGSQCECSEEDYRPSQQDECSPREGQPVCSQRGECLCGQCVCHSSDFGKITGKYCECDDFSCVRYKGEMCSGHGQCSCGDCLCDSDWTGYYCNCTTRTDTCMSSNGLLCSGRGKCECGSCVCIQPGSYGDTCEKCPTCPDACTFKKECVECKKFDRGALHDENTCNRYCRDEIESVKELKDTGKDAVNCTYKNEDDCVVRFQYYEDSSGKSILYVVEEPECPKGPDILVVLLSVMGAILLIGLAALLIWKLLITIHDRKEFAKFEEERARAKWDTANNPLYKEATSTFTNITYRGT
UniProt P08514, 32-887 limits assumed: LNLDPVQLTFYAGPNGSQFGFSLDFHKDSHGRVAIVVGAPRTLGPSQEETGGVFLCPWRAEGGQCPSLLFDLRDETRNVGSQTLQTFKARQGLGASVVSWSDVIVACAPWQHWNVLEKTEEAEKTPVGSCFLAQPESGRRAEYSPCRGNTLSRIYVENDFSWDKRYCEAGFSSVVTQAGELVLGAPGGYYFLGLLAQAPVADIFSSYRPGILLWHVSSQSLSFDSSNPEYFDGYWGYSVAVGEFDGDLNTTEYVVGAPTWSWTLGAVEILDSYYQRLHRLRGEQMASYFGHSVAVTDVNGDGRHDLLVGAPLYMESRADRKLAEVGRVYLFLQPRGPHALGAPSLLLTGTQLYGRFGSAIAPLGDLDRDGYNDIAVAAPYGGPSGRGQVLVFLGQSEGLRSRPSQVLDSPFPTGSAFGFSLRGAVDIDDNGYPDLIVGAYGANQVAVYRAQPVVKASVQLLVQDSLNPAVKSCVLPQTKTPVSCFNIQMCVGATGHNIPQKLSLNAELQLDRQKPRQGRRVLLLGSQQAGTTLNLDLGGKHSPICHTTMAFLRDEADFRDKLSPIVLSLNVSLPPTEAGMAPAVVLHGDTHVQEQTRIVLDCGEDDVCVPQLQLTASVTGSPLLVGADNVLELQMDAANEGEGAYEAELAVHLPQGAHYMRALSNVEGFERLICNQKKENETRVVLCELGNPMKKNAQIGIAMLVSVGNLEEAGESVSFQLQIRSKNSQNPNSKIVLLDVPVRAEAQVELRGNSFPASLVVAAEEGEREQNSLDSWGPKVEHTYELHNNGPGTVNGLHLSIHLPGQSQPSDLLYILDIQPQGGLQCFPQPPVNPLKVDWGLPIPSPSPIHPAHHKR
UniProt P08514, 891-1039 partner limits assumed: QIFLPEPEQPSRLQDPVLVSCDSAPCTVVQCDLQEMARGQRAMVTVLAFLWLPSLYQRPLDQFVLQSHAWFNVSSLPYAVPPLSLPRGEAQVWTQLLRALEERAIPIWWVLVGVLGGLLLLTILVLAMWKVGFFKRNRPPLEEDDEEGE

target: isolated activated GpIIb/IIIa receptor (Homo sapiens, UniProt P05106+P08514); experiment: GpIIb/IIIa-Fibrinogen-ELISA (inhibition of fibrinogen binding to coated receptor); conditions: inhibition of fibrinogen-GpIIb/IIIa interaction, O.D. at 405 nm, tested form: trifluoroacetate
Description: Microtitre plates are coated overnight with 2 μg/ml isolated activated GpIIb/IIIa receptor. After removing the unbound receptor by several washing steps, the surface of the plates is blocked with 1% casein and washed again. The test substance is added in the required concentrations and the plates are incubated for 10 minutes while shaking in a linear shaker. The natural ligand of the gpIIb/IIIa receptor, fibrinogen, is added. After 1 hour of incubation the unbound fibrinogen is removed by several washing steps and bound fibrinogen is detected by a peroxidase-conjugated anti-fibrinogen monoclonal antibody by measuring the O.D. at 405 nm in an ELISA-reader. Inhibition of fibrinogen-GpIIb/IIIa interaction results in a low O.D. An IC50 is calculated in relation to a concentration-effect curve.
The GpIIb/IIIa-Fibrinogen-ELISA is a modification of the assays described in the following literature:
Nachman, R. L. & Leung, L. L. K. (1982): Complex formation of platelet membrane glycoproteins IIb and IIIa with fibrinogen. J. Clin. Invest. 69:263-269. Wright, P. S. et al. (1993): An echistatin C-terminal peptide activated GpIIbIIIa binding to fibrinogen, fibronectin, vitronectin and collagen type I and type IV. Biochem. J. 293:263-276.

| pIC50 | SMILES |
| --- | --- |
| 8.22 | O=C(O)CC1(O)CCC(CCN2CCN(c3ccncc3)CC2)CC1 (single isomer, unassigned) [3 trans-isomer] |
| 6.52 | O=C(O)CC1(O)CCC(CCN2CCN(c3ccncc3)CC2)CC1 (single isomer, unassigned) [3 cis-isomer] |
| 6.52 | O=C(O)CC1(O)CCC(CC(=O)N2CCN(c3ccncc3)CC2)CC1 (stereo not drawn) |
